SMILES strings stand for the structures. The entries are a selection whose mix differs from that of the whole data set. Measured potencies and affinities stand elsewhere. Some results for these compounds are left out of this collection, so the calls shown say nothing about other tests. Active and inactive are the calls of the source.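 The calls were made as follows: active = compound inhibiting the enzyme by more than half at any dose during confirmatory dose-response retesting; inconclusive = strong single-dose inhibitors picked by rank but not retested; inactive = the rest.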

Protein sequences, listed by entry. Tags and fused reporters are not part of them.
UniProt Q8IL11, whole entry: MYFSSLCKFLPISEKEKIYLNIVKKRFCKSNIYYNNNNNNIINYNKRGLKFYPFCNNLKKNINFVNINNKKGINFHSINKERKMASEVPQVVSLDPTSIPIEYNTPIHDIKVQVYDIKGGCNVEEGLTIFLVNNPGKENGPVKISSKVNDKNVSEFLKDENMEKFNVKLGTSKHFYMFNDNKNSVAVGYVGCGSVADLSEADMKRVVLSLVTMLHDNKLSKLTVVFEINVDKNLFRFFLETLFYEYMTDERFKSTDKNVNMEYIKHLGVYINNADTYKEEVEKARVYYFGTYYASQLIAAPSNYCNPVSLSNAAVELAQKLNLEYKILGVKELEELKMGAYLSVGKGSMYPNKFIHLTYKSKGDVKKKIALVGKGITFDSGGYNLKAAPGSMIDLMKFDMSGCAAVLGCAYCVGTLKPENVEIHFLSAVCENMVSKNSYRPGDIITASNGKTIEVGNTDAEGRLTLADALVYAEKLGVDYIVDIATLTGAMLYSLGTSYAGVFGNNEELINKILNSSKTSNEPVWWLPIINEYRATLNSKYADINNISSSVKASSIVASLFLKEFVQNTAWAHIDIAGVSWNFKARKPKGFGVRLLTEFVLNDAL

The target of the assay is Leucine aminopeptidase (Plasmodium falciparum (isolate 3D7)) (UniProt Q8IL11). The assay can be described thus: P. falciparum M17LAP inhibitors, primary screen, biochemical, fluorogenic H-Leu-NHMec substrate, 1536-well (AID 1619).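 Also: plate controls were full reaction with DMSO carrier for no effect and no enzyme background for full effect.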 To be noted: recombinant M17LAP, H-Leu-NHMec fluorogenic kinetic assay; at 30 µM; hits give high values.
As for `CCN(CC)CC(C)C(C)OC(=O)C(O)(c1ccccc1)c1ccccc1` (stereo unspecified), the inhibition is inactive: 1.88%. Consider `CC(C)N1C(=O)CC2(CCN(CCOC(=O)C(O)(c3ccccc3)c3ccccc3)CC2)C1=O`, for which the inhibition was inactive: -12.4%. With `O=C(NCC1(N2CCCCC2)CCCCC1)c1cc([N+](=O)[O-])ccc1Cl`, the inhibition was inactive: 6.43%.

With `CCN1CCCC(OC(=O)C2(O)c3ccccc3C=Cc3ccccc32)C1` (stereo unspecified), the inhibition was inactive: -12%. As to `C=CCN1CCN(CCOC(=O)C(O)(c2ccccc2)c2ccccc2)CC1`, the inhibition was inactive: -7.76%. Take `CN(C)C1CCCC1OC(=O)C(O)(c1ccccc1)c1ccccc1` (stereo unspecified): the inhibition was inactive: 1.76%. With `Cc1ccccc1C(=O)NCC1(N2CCCCC2)CCCCC1`, the inhibition is inactive: 2.86%. As for `COc1cccc(C(=O)NCC2(N3CCCCC3)CCCCC2)c1`, the inhibition was inactive: -1.71%. Regarding `CN(C)c1cccc(C(=O)NCC2(N(C)C)CCCCC2)c1`, the inhibition was inactive: 2.41%. Regarding `COc1ccc(Br)c(C(=O)NCC2(N3CCCCC3)CCCCC2)c1`, the inhibition was inactive: -5.3%. Take `O=C(OC1CN2CCC1CC2)C(CO)(c1ccccc1)c1ccccc1` (stereo unspecified): the inhibition is inactive: 0.33%.

For orientation: inhibition means the drop in the measured response relative to a control, in per cent.

(Values after PubChem BioAssay AID1619 (SRMLSC, 2009).)
